{
  "sequences": {"note": "Amino acid sequences for entries named in this document (tags omitted). A change or cut given only in a name is not applied to a line headed by its entry.", "UniProt Q9QYN8": "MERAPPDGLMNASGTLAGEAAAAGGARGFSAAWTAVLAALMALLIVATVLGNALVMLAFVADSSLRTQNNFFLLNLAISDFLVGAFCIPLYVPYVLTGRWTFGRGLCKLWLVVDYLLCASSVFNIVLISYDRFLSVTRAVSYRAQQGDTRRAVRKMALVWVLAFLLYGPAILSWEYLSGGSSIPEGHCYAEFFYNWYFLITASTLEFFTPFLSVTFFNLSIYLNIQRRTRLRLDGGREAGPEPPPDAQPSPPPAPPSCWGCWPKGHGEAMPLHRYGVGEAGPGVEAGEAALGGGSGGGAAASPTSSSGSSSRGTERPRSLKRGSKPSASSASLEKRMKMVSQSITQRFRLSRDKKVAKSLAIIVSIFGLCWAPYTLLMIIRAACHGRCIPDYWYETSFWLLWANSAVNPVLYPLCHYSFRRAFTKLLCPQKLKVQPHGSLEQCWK"},
  "source": "patent US9181275B2",
  "about": "“Mercaptoamidine derivatives and methods of use” (AbbVie Inc., priority 2011, dated 2015)",
  "target": "native H3 receptors from rat cerebral cortices (Rattus norvegicus (Rat), UniProt Q9QYN8)",
  "test": "H3 receptor competition binding with [3H]-N-α-methylhistamine, rat cerebral cortex membranes",
  "details": "[3H]-N-α-methylhistamine competition binding",
  "data": [
    {"molecule": "CC1=C(c2ccc(OCCCN3CCC[C@H]3CO)cc2)SC2=NCc3ccccc3CN21", "note": "[Example 1, ((2S)-1-{3-[4-(3-methyl-5,10-dihydro[1,3]thiazolo[3,2-b][2,4]benzodiazepin-2-yl)phenoxy]propyl}pyrrolidin-2-yl)methanol]", "values": [
      {"measurement": "Ki", "value": 0.032, "unit": "nM"}
    ]}
  ]
}
